{"source": "patent US20040143461A1", "about": "“Generating, viewing, interpreting, and utilizing a quantitative database of metabolites” (Lipomics Technologies, Inc., priority 2001, published 2004)", "test_system": "plasma lipid metabolome", "settings": "treated mice, trial 1, 4 weeks; untreated 1,400 nmol/g", "experimental": "Mouse tissue and plasma samples were a generous donation to Lipomics Technologies from Dr. Edward Leiter of the Jackson Laboratory (Bar Harbor, Me.). Samples included the plasma, heart, liver and inguinal adipose of mice treated with pharmaceuticals or their corresponding controls.\nIn both studies, five treated and five control mice were used. Following the treatments and the killing of the mice, tissues and plasma were taken, chilled to −80° C. and shipped to the analysis laboratory at Lipomics Technologies in a frozen state.\nThe lipids from plasma and tissues were extracted in the presence of authentic internal standards by the method of Folch et al. (J. Biol. Chem. 226, 497-509, 1957) by homogenization in a fluid extractant consisting of chloroform:methanol (2:1 vol:vol). Plasma (200 μl), or 10 mg inguinal adipose tissue was used for each analysis. For each sample, an appropriate mass of internal standard was added. […]", "data": [{"smiles": "CN(CCOc1ccc(CC2SC(=O)NC2=O)cc1)c1ccccn1", "note": "(stereo not shown) [rosiglitazone]", "values": [{"measurement": "Total plasma triacylglyceride concentrations", "value": 400, "unit": "nmol/g"}]}]}
